According to BindingDB's records for doi:10.1021/acs.jmedchem.9b00506 (Rapt Therapeutics, 2019):

Assay: Antagonist activity at CCR4 in human CCRF-CEM cells assessed as inhibition of CCL22-mediated chemotaxis in presence of 100% human serum pre-incubated for 30 mins followed by CCL22 addition and measured after 60 mins by chemoTX probe based CellTiter-Glo assay

IC50 | SMILES
151 nM | Cc1nn([C@H](C)c2ccc(Cl)cc2Cl)c2nc(N3CC[C@H](N4CCC[C@H]4CO)[C@H](C)C3)cnc12 [US10246462, Example 31]
195 nM | Cc1nn([C@H](C)c2ccc(Cl)cc2Cl)c2nc(N3CC[C@H](N4CCCCCC4)[C@H](C)C3)cnc12 [US10246462, Example 14]
218 nM | Cc1nn([C@H](C)c2ccc(Cl)cc2Cl)c2nc(N3CC[C@H](N4CCC4)[C@H](C)C3)cnc12 [US10246462, Example 13]
